By UniProt entry, the sequences of proteins in these tests, tags left out.
Melanocortin receptor 4 (Homo sapiens), P32245, UniProt P32245, whole entry, looked up: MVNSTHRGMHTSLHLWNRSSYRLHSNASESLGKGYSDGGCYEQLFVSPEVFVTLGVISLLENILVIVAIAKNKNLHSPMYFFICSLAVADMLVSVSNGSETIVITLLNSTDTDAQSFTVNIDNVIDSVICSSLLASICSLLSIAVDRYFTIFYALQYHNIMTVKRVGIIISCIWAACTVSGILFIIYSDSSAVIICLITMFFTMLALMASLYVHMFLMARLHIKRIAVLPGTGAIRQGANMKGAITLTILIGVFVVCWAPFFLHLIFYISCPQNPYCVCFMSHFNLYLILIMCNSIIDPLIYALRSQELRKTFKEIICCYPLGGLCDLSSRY

# Compound activity as filed in PubChem.
# HDAC3 inhib: HDAC3 deacetylase inhibitors, primary screen, biochemical, fluorescence, cell-free homogeneous; Histone deacetylase 3 (Homo sapiens), O15379; recombinant HDAC3, fluorogenic peptide/trypsin coupled; inhibition, % at 8.3 µM; actives 0.15% (n = 320,000); AID 2718, 2010; in the data active means inhibition above about 26%, passing the limit was not always enough; inconclusive means no clear call, values can overlap the other calls
# MC4R barr agon: MC4R agonists recruiting beta-arrestin, primary screen, cell-based, luminescence, agonist arm of biased-ligand search; U2OS MC4R beta-arrestin complementation; percent of melanotan II response, DMSO zero; AID 540308, 2011; activation, % at 8.9 µM; actives 0.98% (n = 360,000); Melanocortin receptor 4 (Homo sapiens), P32245;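 active means activation above a per-plate cutoff, the mean activation of sample wells on that plate plus 3 SD, cut at about 8% in these data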
# NALP1 yeast inh: NALP1 inflammasome inhibitors in reconstituted yeast, colorimetric, S. cerevisiae, triplicate retest. AID 2071, 2009. inhibition, % at 10 µM. S. cerevisiae NALP1/ASC/caspase-1 growth, X-gal OD620, 72 h. actives 0.61% (n = 280,000); in the data active means inhibition mostly above about 24%, no sharp cut-off; inactive means mostly below about 32%
# Yeast UUG start: yeast start codon fidelity modulation. S. cerevisiae UUG-firefly luciferase reporter, luminescence/redox ratio. activity score, % at 18.7 µM. 0.13% of 350,000 active;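 active = replicate mean at a twofold rise or more, about +100% in these data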;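 also: firefly luciferase made from a UUG start codon reports start codon fidelity; reporter light over untreated wells divided by growth signal over untreated wells; some hits fall short of that in this replicate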
# ALR inh: human ALR oxidase inhibition via reduced H2O2. 290,000 tested, 3.8% active. AID 485317. purified ALR, DTT oxidation, H2O2 HRP-luminol luminescence. inhibition, % (test concentration not listed). P55789;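 active = mean and each replicate at 75% or more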;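 also: stock transfer was 7.5 nL into about 7.5 µL; 0% = neutral wells and 100% = wells with inactivated enzyme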
# MC4R antag cAMP: MC4R antagonists of cAMP signaling, primary screen, cell-based, TR-FRET, antagonist arm of biased-ligand search | inhibition, % at 6.5 µM | actives 0.48% (n = 360,000) | MC4R-expressing cells, MTII-stimulated cAMP, LANCE TR-FRET;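 active means inhibition above its plate's cutoff, the mean of tested wells on that plate plus 3 SD, cut at about 29% in these data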
#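 Assay system: U2OS-MC4R stable cell line; Also added: Melanotan II; Technique: Eu-cAMP/anti-cAMP TR-FRET, emission 671 nm; Times: 30-min compound, 1-h challenge, 1-h detection, room temperature.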
# A number is an active result; i = inactive; ? = inconclusive; nt = no result. Compounds with a hit are over-represented: about 4.2% of the library has one in this group of screens.
SMILES,HDAC3 inhib,MC4R barr agon,NALP1 yeast inh,Yeast UUG start,ALR inh,MC4R antag cAMP
CC=Cc1ccc2n(c1=O)C[C@H]1[C@H](CO)[C@@H](C(=O)Nc3ccccc3)N(CC3CC3)[C@@H]21 (mixture of isomers),nt,nt,nt,i,nt,nt
COc1cccc(-c2ccc3c(c2)[C@H]2[C@H](CCN2C(=O)NC2CCCC2)[C@H](CO)N3C)c1,nt,nt,nt,i,nt,nt
CCN=c1scc(C)n1/N=C/c1cc(Br)c(O)c(OC)c1,?,i,i,nt,86.6,i
O=C1c2ccccc2C(=O)N1/N=C/c1ccc(O)c(O)c1,i,i,i,nt,98.7,i
Oc1ccc(/C=N/N2CCCCC2)cc1O,i,i,i,i,98.8,i
CC1CCCC(C)N1/N=C/c1ccc(O)c(O)c1 (stereo unspecified),i,i,i,i,98.6,i
CCCC#Cc1ccc2c(c1)O[C@H](CN(C)Cc1ccc3c(c1)OCO3)[C@H](C)CN([C@H](C)CO)S2(=O)=O,nt,nt,nt,i,nt,nt
C[C@H]1CN([C@@H](C)CO)C(=O)c2cccc(NC(=O)C3CCOCC3)c2O[C@H]1CN(C)CC1CCCCC1,nt,nt,nt,i,nt,nt
COc1cc(/C=N/N2C(C)CCCC2C)cc(Br)c1O (stereo unspecified),i,i,i,i,99.3,i
COc1cc(/C=N/N2CCCCC2)cc(OC)c1O,i,i,i,i,99.3,i
O=C1NCCN/C1=C\C(=O)c1ccc(Cl)cc1,i,i,39.3,i,i,i
Fc1ccc(C(c2nnnn2CCc2ccccc2)N2CCCc3ccccc32)cc1 (stereo unspecified),i,i,i,i,i,i
Fc1ccc(C(c2nnnn2C2CCCC2)N2CCc3ccccc32)cc1 (stereo unspecified),i,i,i,i,91.5,i
CN(C)CC(=O)Nc1ccc2c(c1)[C@@H]1C[C@@H](CC(=O)N3CCOCC3)O[C@H](CO)[C@@H]1O2,nt,nt,nt,i,nt,nt
C[C@@H]1CN([C@H](C)CO)C(=O)c2cc(C#CCN(C)C)cnc2O[C@@H]1CN(C)C(=O)c1cccnc1,nt,nt,nt,i,nt,nt
CCOC(=O)CSc1c(-c2cccs2)[nH]c2ccccc12,i,8.6,i,i,i,i
CCOC(=O)CSc1nc(N)c(C#N)c(-c2cccs2)c1C#N,i,i,i,i,i,i
Cc1ccc(NC(=O)c2ccc(=O)[nH]n2)cc1S(=O)(=O)Nc1ccc(SC(F)F)cc1,i,i,nt,i,98.7,i
Cc1cc(=O)[nH]c2c(C)cc(S(=O)(=O)Nc3ccc(O)cc3)cc12,i,i,i,i,99.1,i
COc1ccc(CN(C)C[C@H]2OCCCC[C@@H](C)Oc3ccc(NS(=O)(=O)c4cn(C)cn4)cc3C(=O)N([C@H](C)CO)C[C@H]2C)cc1,nt,nt,nt,i,nt,nt
O=C(Nc1ccc2snnc2c1)N1CCN(c2ccccc2)CC1,i,i,i,i,98.7,i
O=C(Nc1ccc2snnc2c1)N1CCOCC1,i,i,i,i,76.8,i
O=C(Nc1ccc2snnc2c1)N1CCCCC1,i,i,i,nt,?,i
S=C(Nc1ccc(N2CCOCC2)cc1)Nc1ccc2snnc2c1,i,i,i,nt,94.9,i
COC(=O)C[C@H]1CC[C@H]2[C@H](COc3ccc(NC(=O)c4cccc(F)c4)cc3C(=O)N2C)O1,nt,nt,nt,i,nt,nt
SMILES,HDAC3 inhib,MC4R barr agon,NALP1 yeast inh,Yeast UUG start,ALR inh,MC4R antag cAMP
C[C@@H]1CN([C@H](C)CO)C(=O)c2cc(Br)cnc2O[C@H]1CN(C)S(=O)(=O)c1ccccc1,nt,nt,nt,i,nt,nt
O=C(C[C@H]1C=C[C@H](NC(=O)c2cccc(F)c2)[C@@H](CO)O1)NCc1ccccc1,nt,nt,nt,i,nt,nt
CCC(Sc1nc(-c2ccccc2)c(-c2ccccc2)[nH]1)C(=O)O (stereo unspecified),i,i,i,i,82.0,i
CNC(=O)CSc1nc(-c2ccccc2)c(-c2ccccc2)[nH]1,i,i,i,i,?,i
Nc1nc(N2CCN(c3ccc(F)cc3)CC2)n[nH]1,i,i,i,nt,97.9,i
COc1ccccc1N1CCN(CCCCOc2cccc3ccccc23)CC1,i,i,54.2,i,nt,i
COc1ccccc1OCCCCN1CCN(c2ccccc2OC)CC1,i,i,i,i,i,i
COc1ccccc1N1CCN(CCCCCCOc2ccc(F)cc2)CC1,i,i,46.5,nt,i,i
CC(=O)N(C)C[C@@H]1Oc2cc(C3=CCCC3)ccc2S(=O)(=O)N([C@H](C)CO)C[C@H]1C,nt,nt,nt,i,nt,nt
Cc1nc(C)c(CC(=O)N/N=C/c2ccc(O)cc2)c(=O)[nH]1,i,i,i,nt,90.1,i
COc1ccc(/C(C)=N/NC(=O)Cc2c(C)nc(C)[nH]c2=O)cc1,i,i,i,nt,i,i
O=C(O)C1CCCN(S(=O)(=O)c2cccs2)C1 (stereo unspecified),i,i,i,i,i,i
Cc1ccc(S(=O)(=O)N2CCCC(C(=O)O)C2)s1 (stereo unspecified),i,i,i,i,86.7,i
COc1ccc(NC(=O)CS(=O)CC(=O)Nc2cc(Cl)ccc2OC)cc1 (stereo unspecified),i,i,i,i,i,i
COc1ccc(NC(=O)CS(=O)CC(=O)Nc2ccc(OC)c(OC)c2)cc1 (stereo unspecified),i,i,i,i,86.8,i
COCC#Cc1ccc2c(c1)O[C@H](CN(C)S(C)(=O)=O)[C@@H](C)CN([C@@H](C)CO)S2(=O)=O,nt,nt,nt,i,nt,nt
C[C@H](CO)N1C[C@H](C)[C@H](CN(C)C)Oc2cc(C#Cc3cccnc3)ccc2S1(=O)=O,nt,nt,nt,i,nt,nt
CCC(=O)Nc1ccc(C(=O)CSc2nnc(-c3ccc(O)cc3)n2CC2CCCO2)cc1OC (stereo unspecified),i,i,i,i,81.7,i
COc1ccc(NC(=O)CSc2nnc(-c3ccncc3)n2CC2CCCO2)c(OC)c1 (stereo unspecified),i,i,i,i,i,i
Cc1noc(C)c1S(=O)(=O)N(C)C[C@H]1Oc2ccc(NC(=O)C3CC3)cc2CC(=O)N([C@H](C)CO)C[C@@H]1C,nt,nt,nt,i,nt,nt
COc1ccc2[nH]c(=O)c(CN(C(=O)c3ccco3)C3CCCCC3)cc2c1,i,i,26.1,i,i,i
Cc1nnc(SCc2cnc(-c3ccc(C(C)C)cc3)s2)n1C,i,i,i,i,98.3,i
c1ccc(-c2ncc(CSc3nncn3-c3ccccc3)s2)cc1,i,i,i,nt,nt,i
O=[N+]([O-])c1ccc(O)c(/C=N/Nc2nn[nH]n2)c1,i,i,i,i,83.6,i
Oc1ccccc1/C=N/Nc1nn[nH]n1,i,i,i,nt,i,i
O=C(Cc1ccc(Cl)cc1)NNC(=S)NC(=O)c1cccs1,i,i,i,nt,97.8,i
